From patent US20110045032A1, “COMPOSITION, FORMULATIONS & KIT FOR TREATMENT OF RESPIRATORY AND LUNG DISEASE WITH DEHYDROEPIANDROSTERONE(S) STEROID & AN ANTI-MUSCARINIC AGENT(S)” (priority 2001, published 2011)

Tested on: Intracellular Adenosine in various Rat Tissues
Details: in vivo
Protocol: Folinic acid (50 mg/kg) was administered intraperitoneally once daily for fourteen days. […] Hearts were removed from animals and flash frozen in liquid nitrogen with 10 seconds of death. Liver and lungs were removed en bloc and flash frozen with 30 seconds of death. Brain tissue was subsequently dissected.

Compound: C[C@]12CC[C@H](O)CC1=CC[C@@H]1[C@@H]2CC[C@]2(C)C(=O)CC[C@@H]12 [DHEA, dehydroepiandrosterone]
- Intracellular Adenosine, Liver: 16.4 ± 1.4 nmols/mg protein
